{
  "source": "patent US7977354B2",
  "about": "“Heterocyclic compounds, their preparation and their use as medicaments, in particular as anti-alzheimer agents” (priority 2005, dated 2011)",
  "molecular_target": "human acetylcholinesterase (Homo sapiens, UniProt P22303)",
  "experiment": "Cholinesterase activity determination, modified Ellman method",
  "format": "biochemical",
  "conditions": "read-out: Inhibition of human acetylcholinesterase (apparent IC50); human erythrocyte membranes, acetylthiocholine iodide, pH 7.4, 10 min, room temperature",
  "data": [
    {"smiles": "CCOC(=O)c1cc(OC(=O)N(C)C)c[n+](C)c1", "values": [
      {"measurement": "IC50", "value": 80, "unit": "µM"}
    ]}
  ]
}
